## Measured affinities in a library of Ab-14 heavy chain variants

Binding partner: SARS-CoV-2 spike HR2 peptide, sequence PDVDLGDISGINAS.

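The parent was found by panning a naive human phage display library on the peptide. Variants in AAYL49 differ from the parent at up to three CDR positions; double and triple changes were sampled at random. Affinity was read by AlphaSeq, a pooled yeast mating assay with surface-displayed partners. Pairs that bind mate more often; barcode pairs of the diploids are counted by sequencing. The ratio of observed to expected reads was calibrated, replicate by replicate, on BCL2-family standards whose Kd was known from biolayer interferometry. The assay was run in three technical replicates.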

Each scFv is VH, three GGGGS repeats, VL, as in the parent Ab-14, and differs from it in the CDRs of the heavy chain only.
VH: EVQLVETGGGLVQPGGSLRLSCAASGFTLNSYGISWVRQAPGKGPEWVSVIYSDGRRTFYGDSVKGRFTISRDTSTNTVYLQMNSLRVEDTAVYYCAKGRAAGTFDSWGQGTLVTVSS
VL: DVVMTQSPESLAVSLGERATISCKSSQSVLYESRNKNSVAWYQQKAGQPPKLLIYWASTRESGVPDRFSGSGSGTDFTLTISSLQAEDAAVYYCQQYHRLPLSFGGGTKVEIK

Variants are written as CDR1, CDR2 and CDR3 of the heavy chain (limits as in the source). Parent: GFTLNSYGIS, VIYSDGRRTFYGDSVK, GRAAGTFDS. Values are log10 of the apparent Kd in nM; lower means stronger binding. Replicates are averaged; those with no signal do not enter the mean. A pair that was not seen in that replicate is written "n.d."; this usually means weak binding, but a binder can also be missed. Empty control strains, which show no peptide, gave a signal in 15% of pairings with library AAYL49; the median was 4.06 and 95% of these signals were weaker than 2.83. No background was subtracted. Also given: how often the same scFv was detected with the empty control strains, with their mean in brackets.

{"CDR-H1": "GFTLNSYGMS", "CDR-H2": "VIYSNGRRTFYGDSSK", "CDR-H3": "GRAAGTFDS", "replicates, log10 nM": "3.63 n.d. 5.02", "mean, log10 nM": "4.33", "empty controls": "2/9 (3.26)"}
{"CDR-H1": "GFTLNSYGVS", "CDR-H2": "VIYSDGRRTFYGMSVK", "CDR-H3": "GRAAGTIDS", "replicates, log10 nM": "3.53 2.98 3.20", "mean, log10 nM": "3.23", "empty controls": "5/9 (4.54)"}
{"CDR-H1": "GFTLNSYGIS", "CDR-H2": "VIYIDGRRTFHGDSTK", "CDR-H3": "GRAAGTFDS", "replicates, log10 nM": "n.d. n.d. n.d.", "mean, log10 nM": "n.d.", "empty controls": "0/9"}
{"CDR-H1": "GFQLNSLGIS", "CDR-H2": "VIYSDGRRTFYGDSLK", "CDR-H3": "GRAAGTFDS", "replicates, log10 nM": "4.69 5.00 4.14", "mean, log10 nM": "4.61", "empty controls": "4/9 (4.92)"}
{"CDR-H1": "GFTLNSYGDS", "CDR-H2": "VIYSDGRRTFLGDSVP", "CDR-H3": "GRAAGTFDS", "replicates, log10 nM": "n.d. n.d. n.d.", "mean, log10 nM": "n.d.", "empty controls": "1/9 (3.05)"}
{"CDR-H1": "SFTLCSYGIS", "CDR-H2": "VIYSDGRRTFYGMSVK", "CDR-H3": "GRAAGTFDS", "replicates, log10 nM": "n.d. n.d. n.d.", "mean, log10 nM": "n.d.", "empty controls": "0/9"}
{"CDR-H1": "GFTLNSYGIS", "CDR-H2": "MIYSDGRRTHYGDSVK", "CDR-H3": "GRAAGEFDS", "replicates, log10 nM": "n.d. n.d. n.d.", "mean, log10 nM": "n.d.", "empty controls": "0/9"}
{"CDR-H1": "GFTLNSYGIS", "CDR-H2": "VIYSDGRRTFYGDSVK", "CDR-H3": "GRAAGTHDS", "replicates, log10 nM": "2.16 2.16 1.72", "mean, log10 nM": "2.01", "empty controls": "1/9 (3.97)"}
{"CDR-H1": "GFTLDSYGIS", "CDR-H2": "VIYSDGRRTFYGFSVK", "CDR-H3": "GRAAGTTDS", "replicates, log10 nM": "5.23 n.d. n.d.", "mean, log10 nM": "5.23", "empty controls": "1/9 (3.59)"}
{"CDR-H1": "GFTLNSYGIS", "CDR-H2": "VIYSDGRQTFYMDSVK", "CDR-H3": "GKAAGTFDS", "replicates, log10 nM": "n.d. n.d. n.d.", "mean, log10 nM": "n.d.", "empty controls": "0/9"}
{"CDR-H1": "GFTLNSPGIT", "CDR-H2": "VIYSDGRRTFYGDSVK", "CDR-H3": "GRAAGRFDS", "replicates, log10 nM": "5.18 4.98 5.07", "mean, log10 nM": "5.07", "empty controls": "3/9 (4.06)"}
{"CDR-H1": "GFTLNSYGIS", "CDR-H2": "VIWSDGQRTFYGDSVK", "CDR-H3": "GRAASTFDS", "replicates, log10 nM": "n.d. n.d. n.d.", "mean, log10 nM": "n.d.", "empty controls": "1/9 (3.20)"}
{"CDR-H1": "GFTMNSYGIS", "CDR-H2": "VDYSDGNRTFYGDSVK", "CDR-H3": "GRAAGTFDS", "replicates, log10 nM": "n.d. 4.88 n.d.", "mean, log10 nM": "4.88", "empty controls": "2/9 (3.80)"}
{"CDR-H1": "GKTLRSYGIS", "CDR-H2": "VIYSDGRRTFYGMSVK", "CDR-H3": "GRAAGTFDS", "replicates, log10 nM": "3.67 n.d. n.d.", "mean, log10 nM": "3.67", "empty controls": "5/9 (4.54)"}
{"CDR-H1": "GFTLISYGIS", "CDR-H2": "WIYSDGRRTFYGDSVK", "CDR-H3": "GRAAGTFDE", "replicates, log10 nM": "n.d. n.d. n.d.", "mean, log10 nM": "n.d.", "empty controls": "0/9"}
{"CDR-H1": "GFTWNSHGIS", "CDR-H2": "VIYSDGRRTGYGDSVK", "CDR-H3": "GRAAGTFDS", "replicates, log10 nM": "n.d. n.d. n.d.", "mean, log10 nM": "n.d.", "empty controls": "0/9"}
{"CDR-H1": "GFTLNKYGIS", "CDR-H2": "VIYSDGRRTVYGDHVK", "CDR-H3": "GRAAGTFDS", "replicates, log10 nM": "3.84 3.85 4.19", "mean, log10 nM": "3.96", "empty controls": "4/9 (4.49)"}
{"CDR-H1": "GFTLNSYGIS", "CDR-H2": "VFYSDGPRTFYGDSVK", "CDR-H3": "GRAWGTFDS", "replicates, log10 nM": "n.d. 2.57 n.d.", "mean, log10 nM": "2.57", "empty controls": "2/9 (2.61)"}
{"CDR-H1": "GFTLNSRPIS", "CDR-H2": "VIYSDGRRTFYGDSVK", "CDR-H3": "GRAAGTFDS", "replicates, log10 nM": "n.d. 5.22 4.87", "mean, log10 nM": "5.04", "empty controls": "2/9 (3.18)"}
{"CDR-H1": "GDTLNSYGIS", "CDR-H2": "VIYSDGRRTMYGDSVK", "CDR-H3": "GRAAETFDS", "replicates, log10 nM": "3.39 n.d. n.d.", "mean, log10 nM": "3.39", "empty controls": "2/9 (4.34)"}
{"CDR-H1": "GFTLNSYGIY", "CDR-H2": "VIYSDGRRTFTDDSVK", "CDR-H3": "GRAAGTFDS", "replicates, log10 nM": "n.d. n.d. 4.31", "mean, log10 nM": "4.31", "empty controls": "2/9 (4.32)"}
{"CDR-H1": "GFTLNSYGIS", "CDR-H2": "VIHSDGRRTFYGDSVK", "CDR-H3": "GRARGTMDS", "replicates, log10 nM": "n.d. n.d. n.d.", "mean, log10 nM": "n.d.", "empty controls": "0/9"}
{"CDR-H1": "GFTLNSHGIS", "CDR-H2": "VIYSDGRRTFYGDSVL", "CDR-H3": "GRAAGTFDI", "replicates, log10 nM": "n.d. n.d. n.d.", "mean, log10 nM": "n.d.", "empty controls": "0/9"}
{"CDR-H1": "GFTLNRYGIS", "CDR-H2": "VIQSDGRRTCYGDSVK", "CDR-H3": "GRAAGTFDS", "replicates, log10 nM": "n.d. n.d. n.d.", "mean, log10 nM": "n.d.", "empty controls": "0/9"}
{"CDR-H1": "GFTLNSYGIS", "CDR-H2": "VIYSDGRRTFYGDSVW", "CDR-H3": "GMAAGTRDS", "replicates, log10 nM": "2.24 1.80 1.98", "mean, log10 nM": "2.01", "empty controls": "0/9"}

2 of these entries, quoted again:

CDR-H1	CDR-H2	CDR-H3	replicates, log10 nM	mean, log10 nM	empty controls
GFTLNSYGDS	VIYSDGRRTFLGDSVP	GRAAGTFDS	n.d. n.d. n.d.	n.d.	1/9 (3.05)
GFTLNSYGIS	VFYSDGPRTFYGDSVK	GRAWGTFDS	n.d. 2.57 n.d.	2.57	2/9 (2.61)

From the AlphaSeq antibody data of Engelhart et al. 2022 (doi:10.1038/s41597-022-01779-4), copy in the FLAb collection.